Our source for the IC50 values is ChEMBL document CHEMBL3351721, “Cyclic adenosine 5'-diphosphate ribose analogs without a "southern" ribose inhibit ADP-ribosyl cyclase-hydrolase CD38” (J Med Chem, 2014).

Chains of the proteins cited; added tags and fusions are not shown.
UniProt P28907, whole entry: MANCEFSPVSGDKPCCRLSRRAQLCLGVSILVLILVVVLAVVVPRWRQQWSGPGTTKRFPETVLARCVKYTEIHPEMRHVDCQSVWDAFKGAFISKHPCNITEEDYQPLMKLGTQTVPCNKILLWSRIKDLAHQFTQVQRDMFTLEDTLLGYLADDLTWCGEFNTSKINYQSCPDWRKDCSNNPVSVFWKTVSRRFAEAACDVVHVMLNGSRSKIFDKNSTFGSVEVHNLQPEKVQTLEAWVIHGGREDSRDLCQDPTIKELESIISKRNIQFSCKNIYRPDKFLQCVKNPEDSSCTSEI

The structures appear in SMILES notation.

The experiment concerns the target ADP-ribosyl cyclase/cyclic ADP-ribose hydrolase 1 (Homo sapiens, UniProt P28907). Nature of the experiment: Inhibition of human CD38 catalytic domain assessed as reduction in cADPR hydrolysis incubated for 10 mins by fluorimetric cycling assay. In short, it runs like this:
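Analog (0–1 mM) incubated with 1 μM cADPR and 1 μg/mL human CD38 catalytic domain, 10 min, 20–24 °C, 25 mM sodium acetate pH 4.5. Stopped with 150 mM HCl, protein filtered off, neutralised with Tris base, diluted 20-fold. Remaining cADPR quantified by fluorimetric cycling assay; IC50 from dose–response.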

With `O=c1c2nc(Br)n3c2ncn1[C@@H]1O[C@H](COP(=O)(O)OP(=O)(O)OC[C@H]2O[C@@H]3[C@H](O)[C@@H]2O)[C@@H](O)[C@H]1O`, the IC50 came to 158 µM.

As a reminder, the IC50 is the concentration that gives 50% inhibition.
